Assay results from US20260167693A1 (ANGELES THERAPEUTICS, published 2026).

T1: CD19-ECD-GGSG-NLuc-AcV5 (human)
T1 construct: also called CD19-GGSG-NLuc-AcV5; Flag-CD19-GGSG-NLuc-AcV5
T1 chain: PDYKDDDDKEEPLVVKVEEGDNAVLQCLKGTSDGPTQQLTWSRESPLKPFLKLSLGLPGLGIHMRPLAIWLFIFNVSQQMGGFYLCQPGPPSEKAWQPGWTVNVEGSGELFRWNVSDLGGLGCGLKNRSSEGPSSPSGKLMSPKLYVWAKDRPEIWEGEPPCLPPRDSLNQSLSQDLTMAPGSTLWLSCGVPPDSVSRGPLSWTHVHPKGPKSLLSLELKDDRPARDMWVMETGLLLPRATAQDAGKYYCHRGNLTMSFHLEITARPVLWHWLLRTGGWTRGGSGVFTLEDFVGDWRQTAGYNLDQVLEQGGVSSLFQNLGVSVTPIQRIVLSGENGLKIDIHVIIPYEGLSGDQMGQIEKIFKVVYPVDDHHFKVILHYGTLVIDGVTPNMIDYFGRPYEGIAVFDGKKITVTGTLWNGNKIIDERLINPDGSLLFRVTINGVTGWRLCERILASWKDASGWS


Columns and labels:
CD19-ECD-GGSG-NLuc-AcV5 [1] = molecular target: T1, CD19-ECD-GGSG-NLuc-AcV5; assay: NLuc binding assay, SIR on primary human T cells
CD19-ECD-GGSG-NLuc-AcV5 [2] = molecular target: T1, CD19-ECD-GGSG-NLuc-AcV5; assay: NLuc binding assay, SIR on Jurkat-NFAT-Luc cells; parental Jurkats 996
CD19-ECD-GGSG-NLuc-AcV5 [3] = molecular target: T1, CD19-ECD-GGSG-NLuc-AcV5; assay: NLuc binding assay, SIR on Jurkat-NFAT-Luc cells; parental Jurkats 1515

Row | mean NLuc value (CD19-ECD-GGSG-NLuc-AcV5 [1]) | NLuc value (CD19-ECD-GGSG-NLuc-AcV5 [2]) | NLuc value (CD19-ECD-GGSG-NLuc-AcV5 [3]) | Binder
1 | 1190 | 3610 | – | CD8SP-FMC63-vL-V5-[hTCRb-WT]-F-P2A-SP-FMC63-vH-Myc-[hTCRa-WT]-F-F2A-PAC (080815-F02)[SEQ ID NO:922] (other, SIR with wild-type TCR constant chains; Polyprotein PRT 3157) TCR beta: DIQMTQTTSSLSASLGDRVTISCRASQDISKYLNWYQQKPDGTVKLLIYHTSRLHSGVPSRFSGSGSGTDYSLTISNLEQEDIATYFCQQGNTLPYTFGGGTKLEITGKPIPNPLLGLDSTGSGEDLKNVFPPEVAVFEPSEAEISHTQKATLVCLATGFYPDHVELSWWVNGKEVHSGVSTDPQPLKEQPALNDSRYCLSSRLRVSATFWQNPRNHFRCQVQFYGLSENDEWTQDRAKPVTQIVSAEAWGRADCGFTSESYQQGVLSATILYEILLGKATLYAVLVSALVLMAMVKRKDSRG TCR alpha: EVKLQESGPGLVAPSQSLSVTCTVSGVSLPDYGVSWIRQPPRKGLEWLGVIWGSETTYYNSALKSRLTIIKDNSKSQVFLKMNSLQTDDTAIYYCAKHYYYGGSYAMDYWGQGTSVTVSSEQKLISEEDGSGIQNPDPAVYQLRDSKSSDKSVCLFTDFDSQTNVSQSKDSDVYITDKTVLDMRSMDFKSNSAVAWSNKSDFACANAFNNSIIPEDTFFPSPESSCDVKLVEKSFETDTNLNFQNLSVIGFRILLLKVAGFNLLMTLRLWSS
2 | – | – | 693 | CD8SP-FMC63-vL-V5-[hTCRb-WT]-F-P2A-SP-FMC63-vH-Myc-[preTCRa-Del48]-F-F2A-PAC (091015-Y08)[SEQ ID NO:926] (other, Polyprotein PRT 3161) TCR beta: DIQMTQTTSSLSASLGDRVTISCRASQDISKYLNWYQQKPDGTVKLLIYHTSRLHSGVPSRFSGSGSGTDYSLTISNLEQEDIATYFCQQGNTLPYTFGGGTKLEITGKPIPNPLLGLDSTGSGEDLKNVFPPEVAVFEPSEAEISHTQKATLVCLATGFYPDHVELSWWVNGKEVHSGVSTDPQPLKEQPALNDSRYCLSSRLRVSATFWQNPRNHFRCQVQFYGLSENDEWTQDRAKPVTQIVSAEAWGRADCGFTSESYQQGVLSATILYEILLGKATLYAVLVSALVLMAMVKRKDSRG EVKLQESGPGLVAPSQSLSVTCTVSGVSLPDYGVSWIRQPPRKGLEWLGVIWGSETTYYNSALKSRLTIIKDNSKSQVFLKMNSLQTDDTAIYYCAKHYYYGGSYAMDYWGQGTSVTVSSEQKLISEEDGSGTPFPSLAPPIMLLVDGKQQMVVVCLVLDVAPPGLDSPIWFSAGNGSALDAFTYGPSPATDGTWTNLAHLSLPSEELASWEPLVCHTGPGAEGHSRSTQPMHLSGEASTARTCPQEPLRGTPGGALWLGVLRLLLFKLLLFDLLLTCSCLCDPAGPLPSPATTTRLRALGSHRLHPATETGGREATSSPRPQPRDRRWGDTPPGRKPGSPV
3 | 19200 | 37200 | – | CD8SP-FMC63-vL-V5-[TCRb-S57C-opt1]-F-P2A-SP-FMC63-vH-Myc-[TCRa-T48C-opt1]-F-F2A-PAC (050515-L05)[SEQ ID NO:900] (other, Polyprotein PRT 3135) TCR beta: DIQMTQTTSSLSASLGDRVTISCRASQDISKYLNWYQQKPDGTVKLLIYHTSRLHSGVPSRFSGSGSGTDYSLTISNLEQEDIATYFCQQGNTLPYTFGGGTKLEITGKPIPNPLLGLDSTGSGEDLKNVFPPEVAVFEPSEAEISHTQKATLVCLATGFYPDHVELSWWVNGKEVHSGVCTDPQPLKEQPALNDSRYCLSSRLRVSATFWQNPRNHFRCQVQFYGLSENDEWTQDRAKPVTQIVSAEAWGRADCGFTSESYQQGVLSATILYEILLGKATLYAVLVSALVLMAMVKRKDSRG TCR alpha: EVKLQESGPGLVAPSQSLSVTCTVSGVSLPDYGVSWIRQPPRKGLEWLGVIWGSETTYYNSALKSRLTIIKDNSKSQVFLKMNSLQTDDTAIYYCAKHYYYGGSYAMDYWGQGTSVTVSSEQKLISEEDGSGPDPAVYQLRDSKSSDKSVCLFTDFDSQTNVSQSKDSDVYITDKCVLDMRSMDFKSNSAVAWSNKSDFACANAFNNSIIPEDTFFPSPESSCDVKLVEKSFETDTNLNFQNLSVIGFRILLLKVAGFNLLMTLRLWSS
4 | 107000 | 503000 | – | CD8SP-FMC63-vL-V5-[hTCRb-KACIAH]-F-P2A-SP-FMC63-vH-Myc-[hTCRa-CSDVP]-F-F2A-PAC (081415-D06)[SEQ ID NO:992] (other, Polyprotein PRT 3227; also called FMC63-SIR-D06) TCR beta: DIQMTQTTSSLSASLGDRVTISCRASQDISKYLNWYQQKPDGTVKLLIYHTSRLHSGVPSRFSGSGSGTDYSLTISNLEQEDIATYFCQQGNTLPYTFGGGTKLEITGKPIPNPLLGLDSTGSGEDLKNVFPPEVAVFEPSKAEIAHTQKATLVCLATGFYPDHVELSWWVNGKEVHSGVCTDPQPLKEQPALNDSRYCLSSRLRVSATFWQNPRNHFRCQVQFYGLSENDEWTQDRAKPVTQIVSAEAWGRADCGITSASYHQGVLSATILYEILLGKATLYAVLVSALVLMAMVKRKDSRG TCR alpha: EVKLQESGPGLVAPSQSLSVTCTVSGVSLPDYGVSWIRQPPRKGLEWLGVIWGSETTYYNSALKSRLTIIKDNSKSQVFLKMNSLQTDDTAIYYCAKHYYYGGSYAMDYWGQGTSVTVSSEQKLISEEDGSGIQNPDPAVYQLRDSKSSDKSVCLFTDFDSQTNVSQSKDSDVYITDKCVLDMRSMDFKSNSAVAWSNKSDFACANAFNNSIIPEDTFFPSSDVPCDVKLVEKSFETDTNLNFQNLSVIGFRILLLKVAGFNLLMTLRLWSS
